# Results taken from US9890152B2 (Genentech, Inc., priority 2012, dated 2018).
# The chains behind the UniProt entries cited, without tags or fusion partners. Residues count along the entry.
# UniProt P00533, 25-1210 T790M/L858R limits assumed: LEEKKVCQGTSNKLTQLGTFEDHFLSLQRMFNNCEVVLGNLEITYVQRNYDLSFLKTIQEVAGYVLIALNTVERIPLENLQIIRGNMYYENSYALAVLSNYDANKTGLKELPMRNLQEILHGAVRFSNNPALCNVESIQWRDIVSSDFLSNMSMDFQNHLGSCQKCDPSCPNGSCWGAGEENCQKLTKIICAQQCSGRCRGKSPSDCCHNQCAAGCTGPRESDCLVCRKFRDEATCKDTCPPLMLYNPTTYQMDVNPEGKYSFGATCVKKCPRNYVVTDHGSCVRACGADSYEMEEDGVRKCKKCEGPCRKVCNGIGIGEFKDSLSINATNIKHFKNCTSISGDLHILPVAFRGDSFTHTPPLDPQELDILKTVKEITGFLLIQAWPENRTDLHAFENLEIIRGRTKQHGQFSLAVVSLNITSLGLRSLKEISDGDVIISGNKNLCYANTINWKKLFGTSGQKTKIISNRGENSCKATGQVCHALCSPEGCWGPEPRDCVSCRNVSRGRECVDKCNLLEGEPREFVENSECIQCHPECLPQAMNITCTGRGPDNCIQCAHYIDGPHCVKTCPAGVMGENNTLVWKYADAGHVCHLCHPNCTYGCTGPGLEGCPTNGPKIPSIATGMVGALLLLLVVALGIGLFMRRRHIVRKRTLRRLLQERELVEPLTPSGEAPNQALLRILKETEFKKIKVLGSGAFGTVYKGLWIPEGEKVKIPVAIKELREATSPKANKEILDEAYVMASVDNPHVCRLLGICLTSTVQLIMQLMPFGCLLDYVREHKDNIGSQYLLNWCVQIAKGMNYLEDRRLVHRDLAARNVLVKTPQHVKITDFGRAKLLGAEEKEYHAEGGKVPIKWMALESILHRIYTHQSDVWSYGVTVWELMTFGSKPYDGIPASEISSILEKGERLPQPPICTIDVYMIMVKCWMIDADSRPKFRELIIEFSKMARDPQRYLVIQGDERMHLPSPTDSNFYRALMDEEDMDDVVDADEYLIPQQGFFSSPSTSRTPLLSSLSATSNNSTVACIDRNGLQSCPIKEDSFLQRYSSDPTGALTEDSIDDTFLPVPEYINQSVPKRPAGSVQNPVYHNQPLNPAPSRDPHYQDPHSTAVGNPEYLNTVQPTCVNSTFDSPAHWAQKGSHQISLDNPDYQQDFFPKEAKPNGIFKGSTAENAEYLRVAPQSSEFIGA
# Molecular target: EGFR T790M L858R (Homo sapiens, UniProt P00533, L858R/T790M)
# Assay: biochemical
# Conditions: EGFR(T790M/L858R) Ki (μM), 5 μM ATP, 30 min, room temperature; apparent Ki (Morrison) converted by Cheng-Prusoff, Km of ATP 1.3 μM
row,Compound,Ki
1,"Cc1nc2cnc(Nc3ccnc(-c4cnn(CC5(C)COC5)c4)n3)cc2n1C(C)C [Example 431, 1-isopropyl-2-methyl-N-(2-(1-((3-methyloxetan-3-yl)methyl)-1H-pyrazol-4-yl)pyrimidin-4-yl)-1H-imidazo[4,5-c]pyridin-6-amine]",0.0949 µM
2,"Cc1nc2cnc(Nc3ccnc(-c4cnn(C5CCS(=O)(=O)C5)c4)n3)cc2n1C(C)C (stereo not shown) [Example 432, 3-(4-(4-((1-isopropyl-2-methyl-1H-imidazo [4,5-c]pyridin-6-yl)amino)pyrimidin-2-yl)-1H-pyrazol-1-yl)tetrahydrothiophene 1,1-dioxide]",0.342 µM
3,"Cc1cnn(C)c1-c1cn(C(C)C)c2cc(Nc3ccnc(-c4cnn(S(=O)(=O)C5CC5)c4)n3)ncc12 [Example 434, N-(2-(1-(cyclopropylsulfonyl)-1H-pyrazol-4-yl)pyrimidin-4-yl)-3-(1,4-dimethyl-1H-pyrazol-5-yl)-1-isopropyl-1H-pyrrolo[3,2-c]pyridin-6-amine]",0.0674 µM
4,"Cc1cc(-c2cn(C(C)C)c3cc(Nc4ccnc(-c5cnn(S(=O)(=O)C6CC6)c5)n4)ncc23)nn1CCO [Example 435, 2-(3-(6-(2-(1-(cyclopropylsulfonyl)-1H-pyrazol-4-yl)pyrimidin-4-ylamino)-1-isopropyl-1H-pyrrolo[3,2-c]pyridin-3-yl)-5-methyl-1H-pyrazol-1-yl)ethanol]",0.00214 µM
5,"Cc1cc(-c2cn(C(C)C)c3cc(Nc4ccnc(-c5cnn(S(=O)(=O)C6CC6)c5)n4)ncc23)n(CCO)n1 [Example 436, 2-(5-(6-(2-(1-(cyclopropylsulfonyl)-1H-pyrazol-4-yl)pyrimidin-4-ylamino)-1-isopropyl-1H-pyrrolo[3,2-c]pyridin-3-yl)-3-methyl-1H-pyrazol-1-yl)ethanol]",0.00126 µM
6,"Cc1nn(CCO)cc1-c1cn(C(C)C)c2cc(Nc3ccnc(-c4cnn(S(=O)(=O)C5CC5)c4)n3)ncc12 [Example 437, 2-(4-(6-(2-(1-(cyclopropylsulfonyl)-1H-pyrazol-4-yl)pyrimidin-4-ylamino)-1-isopropyl-1H-pyrrolo[3,2-c]pyridin-3-yl)-3-methyl-1H-pyrazol-1-yl)ethanol]",0.00173 µM
7,"Cc1c(-c2cn(C(C)C)c3cc(Nc4ccnc(-c5cnn(S(=O)(=O)C6CC6)c5)n4)ncc23)cnn1CCO [Example 438, 2-(4-(6-(2-(1-(cyclopropylsulfonyl)-1H-pyrazol-4-yl)pyrimidin-4-ylamino)-1-isopropyl-1H-pyrrolo[3,2-c]pyridin-3-yl)-5-methyl-1H-pyrazol-1-yl)ethanol]",0.00121 µM
8,"CC(C)n1cc(-c2cnn(C(CO)CO)c2)c2cnc(Nc3ccnc(-c4cnn(S(=O)(=O)C5CC5)c4)n3)cc21 [Example 439, 2-(4-(6-(2-(1-(cyclopropylsulfonyl)-1H-pyrazol-4-yl)pyrimidin-4-ylamino)-1-isopropyl-1H-pyrrolo[3,2-c]pyridin-3-yl)-1H-pyrazol-1-yl)propane-1,3-diol]",0.000946 µM
9,"CC(C)n1cc(-c2cnn(CC3(O)COC3)c2)c2cnc(Nc3ccnc(-c4cnn(S(=O)(=O)C5CC5)c4)n3)cc21 [Example 440, 3-((4-(6-(2-(1-(cyclopropylsulfonyl)-1H-pyrazol-4-yl)pyrimidin-4-ylamino)-1-isopropyl-1H-pyrrolo[3,2-c]pyridin-3-yl)-1H-pyrazol-1-yl)methyl)oxetan-3-ol]",0.00123 µM
10,"CC(C)n1cc(-c2cnn(C3COC3)c2)c2cnc(Nc3ccnc(-c4cnn(S(=O)(=O)C5CC5)c4)n3)cc21 [Example 441, N-(2-(1-(cyclopropylsulfonyl)-1H-pyrazol-4-yl)pyrimidin-4-yl)-1-isopropyl-3-(1-(oxetan-3-yl)-1H-pyrazol-4-yl)-1H-pyrrolo[3,2-c]pyridin-6-amine]",0.00201 µM
11,"CC(C)n1cc(-c2cn3c(n2)CNCC3)c2cnc(Nc3ccnc(-c4cnn(S(=O)(=O)C5CC5)c4)n3)cc21 [Example 442, N-(2-(1-(cyclopropylsulfonyl)-1H-pyrazol-4-yl)pyrimidin-4-yl)-1-isopropyl-3-(5,6,7,8-tetrahydroimidazo[1,2-a]pyrazin-2-yl)-1H-pyrrolo[3,2-c]pyridin-6-amine]",0.00133 µM
12,"CC(C)n1cc(-c2cnn(CC(=O)N3CCN(C)CC3)c2)c2cnc(Nc3ccnc(-c4cnn(S(=O)(=O)C5CC5)c4)n3)cc21 [Example 443, 2-(4-(6-(2-(1-(cyclopropylsulfonyl)-1H-pyrazol-4-yl)pyrimidin-4-ylamino)-1-isopropyl-1H-pyrrolo[3,2-c]pyridin-3-yl)-1H-pyrazol-1-yl)-1-(4-methylpiperazin-1-yl)ethanone]",0.00129 µM
13,"CCS(=O)(=O)n1cc(-c2nccc(Nc3cc4c(cn3)c(-c3cnn(CC(=O)NC5CCOCC5)c3)cn4C(C)C)n2)cn1 [Example 444, 2-(4-(6-(2-(1-(ethylsulfonyl)-1H-pyrazol-4-yl)pyrimidin-4-ylamino)-1-isopropyl-1H-pyrrolo[3,2-c]pyridin-3-yl)-1H-pyrazol-1-yl)-H-(tetrahydro-2H-pyran-4-yl)acetamide]",0.00114 µM
14,"COC1(CO)CCN(c2nccc(Nc3cc4c(cn3)c(-c3cnn(CC(N)=O)c3)cn4C(C)C)n2)CC1 [Example 446, 2-(4-(6-(2-(4-(hydroxymethyl)-4-methoxypiperidin-1-yl)pyrimidin-4-ylamino)-1-isopropyl-1H-pyrrolo[3,2-c]pyridin-3-yl)-1H-pyrazol-1-yl)acetamide]",0.0023 µM
15,"CCNC(=O)Cn1cc(-c2cn(C(C)C)c3cc(Nc4ccnc(-c5cnn(S(=O)(=O)CC)c5)n4)ncc23)cn1 [Example 447, N-ethyl-2-(4-(6-(2-(1-(ethylsulfonyl)-1H-pyrazol-4-yl)pyrimidin-4-ylamino)-1-isopropyl-1H-pyrrolo[3,2-c]pyridin-3-yl)-1H-pyrazol-1-yl)acetamide]",0.00106 µM
16,"CCS(=O)(=O)n1cc(-c2nccc(Nc3cc4c(cn3)c(C(=O)NC3COC3)cn4C(C)C)n2)cn1 [Example 448, 6-(2-(1-(ethylsulfonyl)-1H-pyrazol-4-yl)pyrimidin-4-ylamino)-1-isopropyl-N-(oxetan-3-yl)-1H-pyrrolo[3,2-c]pyridine-3-carboxamide]",0.0016 µM
17,"COC1CCN(c2nccc(Nc3cc4c(cn3)c(C(=O)NC3CCN(C5COC5)CC3)cn4C(C)C)n2)CC1 [Example 449, 1-isopropyl-6-(2-(4-methoxypiperidin-1-yl)pyrimidin-4-ylamino)-N-(1-(oxetan-3-yl)piperidin-4-yl)-1H-pyrrolo[3,2-c] pyridine-3-carboxamide]",0.00406 µM
18,"CC(C)n1cc(C(=O)N[C@@H]2C[C@@H](O)[C@@H](O)C2)c2cnc(Nc3ccnc(-c4cnn(S(=O)(=O)C5CC5)c4)n3)cc21 [Example 450, 6-(2-(1-(cyclopropylsulfonyl)-1H-pyrazol-4-yl)pyrimidin-4-ylamino)-N-((1s,3S,4R)-3,4-dihydroxycyclopentyl)-1-isopropyl-1H-pyrrolo[3,2-c]pyridine-3-carboxamide]",0.000779 µM
19,"CC(C)n1cc(C(=O)N[C@H]2C[C@@H](O)[C@@H](O)C2)c2cnc(Nc3ccnc(-c4cnn(S(=O)(=O)C5CC5)c4)n3)cc21 [Example 451, 6-(2-(1-(cyclopropylsulfonyl)-1H-pyrazol-4-yl)pyrimidin-4-ylamino)-N-((1r,3R,4S)-3,4-dihydroxycyclopentyl)-1-isopropyl-1H-pyrrolo[3,2-c]pyridine-3-carboxamide]",0.000674 µM
